Consider 1 substance from patent US20070066561A1, “Drug delivery and targeting with vitamin B12 conjugates” (New York University, priority 2002, published 2007).

What all share (assay): Cytotoxicity against human cell lines grown in culture, MTT assay
Common to all, as to type: cell-based
What all share (settings): 72 hr continuous incubation, 5% human serum, relative cell growth by MTT, means of duplicate experiments
A general note: Tetrazolium assays rely on reduction of a dye to a coloured formazan, in cell work by metabolically active cells.

Data set [1] concerns HL60 Promyelocytic leukemia. From the text: (§1) The data below are means of duplicate experiments with similar results.
The next data set has as its system KARPAS-291 Lymphoma.
From the text: as §1

The test system of the next data set is K562 Erythroleukemia.
From the text: as §1

On to “B12-P-Hippuric acid-4,7,10-trioxa-1,13-tridecanediamine e-cyanocobalamin monocarboxylic acid conjugate [B12 P-Hippuric acid]”, for which the “Cytotoxicity, HL60 Promyelocytic leukemia” value in data set [1] stood at 245 ng/mL. Also, in the data set with KARPAS-291 Lymphoma, the “Cytotoxicity, KARPAS-291 Lymphoma” value amounted to 270 ng/mL. Besides, the “Cytotoxicity, K562 Erythroleukemia” value in the data set with K562 Erythroleukemia came out at 281 ng/mL.
